The text below walks through data of patent US20240287043A1, “KETOAMIDE DERIVATIVE AND APPLICATION THEREOF” (GUANGDONG RAYNOVENT BIOTECH CO., LTD., priority 2021, published 2024).

The subject of the data set is MRC5 cells. The data set can be described thus: Cytotoxicity assay in MRC5 cells without viral infection (CellTiter Glo). The note with it: 5 days, no viral infection. The procedure:
MRC5 cells were cultured in MEM (Sigma) culture medium supplemented with 10% fetal bovine serum (Excell), 1% double antibodies (Hyclone), 1% L-glutamine (Gibco) and 1% non-essential amino acids (Gibco). The MEM (Sigma) medium supplemented with 5% fetal bovine serum (Excell), 1% double antibodies (Hyclone), 1% L-glutamine (Gibco) and 1% non-essential amino acids (Gibco) was used as an experimental culture medium.
Cells were seeded into a 96-well microplate at a certain density (Table 2), and cultured overnight in a 5% CO2, 37° C. incubator. The next day, doubly diluted compounds, with 8 concentration points and duplicate wells, were added 50 μL per well. Then the diluted viruses were added to the cells at 100 TCID50 per well, 50 μL per well. A cell control (cells, without compound treatment or viral infection), a virus control (cells infected with viruses, without compound treatment) and a medium control (only medium) were set. The final volume of the culture medium for this experiment was 200 μL, and the final concentration of DMSO in the culture medium was 0.5%, respectively. […]
Nonlinear fitting analysis was performed by GraphPad Prism on the inhibition rate and cell viability of the compounds, and the half effective concentration (EC50) and half cytotoxic concentration (CC50) values of the compounds were calculated, with the experimental results shown in Table 3.
In general terms: Cellular ATP, detected with luciferase, serves as a proxy for viable cell number.

Some results are limits rather than exact numbers.

On to `CC(C)(C)[C@H](NC(=O)C(F)(F)F)C(=O)N1CC2C(CCC23CC3)C1C(=O)N[C@@H](C[C@@H]1CCNC1=O)C(=O)C(=O)NC1CCCC1` (stereo partly shown), for which the cytotoxic concentration (CC50) (commonly the concentration at which the toxic effect on the cells reaches its halfway point) was over 10 µM.
